Laboratory results reported in PMC7730438, “Generation of KS-58 as the first K-Ras(G12D)-inhibitory peptide presenting anti-cancer activity in vivo” (Scientific Reports, 2020).

Sequences of proteins named here, by UniProt entry; tags and fusion partners are left off. Residues count along the entry.
UniProt P01116, 1-188 isoform P01116-2: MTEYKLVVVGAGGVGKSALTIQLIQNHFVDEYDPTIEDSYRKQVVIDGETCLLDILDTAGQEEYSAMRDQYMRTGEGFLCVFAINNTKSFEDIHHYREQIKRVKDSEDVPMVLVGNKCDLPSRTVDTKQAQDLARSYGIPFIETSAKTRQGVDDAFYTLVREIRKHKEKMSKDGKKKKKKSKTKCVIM

Columns and labels:
[1] = target: T1, K-Ras(WT) (Homo sapiens, UniProt P01116); experiment: Cell-free ELISA binding of biotin-labeled peptides
T1 construct: purchased Abcam ab156968
Method: (§1) Recombinant human K-Ras(G12D) (ab268712), K-Ras(G12V) (ab268713), K-Ras(G12C) (ab268711), K-Ras(G13D) (ab271580), K-Ras(Q61H) (ab96817), K-Ras(WT) (ab156968), N-Ras(WT) (ab268821), and H-Ras(WT) (ab93949) proteins were purchased from Abcam (Cambridge, UK). Ras protein was directly coated to wells of Nunc MaxiSorp microplate in PBS containing 0.01 mM GDP and 10 mM MgCl2 overnight at 4 °C. The wells were blocked in PBS containing 0.1% bovine serum albumin (BSA) for 0.5 h at 25 °C.
(§2) For binding assays of biotin-labeled peptides, Ras protein (25 μg/mL) was coated to wells of Nunc MaxiSorp 96-well clear plate (439,454) as described above. After washing the wells three times using PBS containing 0.1% Tween20 (PBST), biotin-labeled peptides in PBS containing 0.025% BSA, 0.01 mM GDP, and 10 mM MgCl2 were added to the wells. After 0.5 h incubation at 25 °C, the wells were washed with PBST three times. Bound biotin-labeled peptides were detected using horseradish peroxidase (HRP)-conjugated streptavidin (SA) (ab7403, Abcam) and 1-Step Ultra TMB-ELISA Substrate Solution (34028, Thermo Fisher Scientific). The amounts of HRP in the wells were measured by absorbance to 450 nm.

[2] = target: T2, N-Ras(WT) (Homo sapiens, UniProt P01111); experiment: Cell-free ELISA binding of biotin-labeled peptides
T2 construct: purchased Abcam ab268821
Method: as §1, §2

EC50 [1]: 80 nM
EC50 [2]: 60 nM
SMILES: CCCCCCC[C@@H]1NC(=O)[C@@H]2CSCCCSC[C@@H](NC(=O)[C@H](Cc3c[nH]c4ccccc34)NC(=O)[C@H](CCCCNC(=O)CCCCCNC(=O)CCCC[C@@H]3SC[C@@H]4NC(=O)N[C@@H]43)NC(=O)[C@H](CC(=O)O)NC(=O)[C@H](Cc3ccc(F)cc3)NC(=O)[C@H](CO)NC1=O)C(=O)NCCC(=O)N1CCC[C@H]1C(=O)N[C@@H](CCCC)C(=O)N2 [Biotin-KS-58, c[βAla-Pro-Nle-c(Cys-Anon-Ser-4fF-Asp-Lys(εN-biotin)-Trp-^DCys)]]
